Measurements: patent US8217001B2, “Modification of feeding behavior” (Imperial Innovations Limited, priority 2001, dated 2012)

How the values were obtained:
Type in all cases: in vivo
[1] = Human infusion study: appetite scores, buffet meal calorie intake, food diaries
[2] = Human infusion study: PYY3-36 plasma concentrations
[3] = Human infusion study: gastric emptying (paracetamol absorption) and plasma glucose and hormones; conditions: 90 minute infusion

CC[C@H](C)[C@H](N)C(=O)N[C@@H](CCCCN)C(=O)N1CCC[C@H]1C(=O)N[C@@H](CCC(=O)O)C(=O)N[C@@H](C)C(=O)N1CCC[C@H]1C(=O)NCC(=O)N[C@@H](CCC(=O)O)C(=O)N[C@@H](CC(=O)O)C(=O)N[C@@H](C)C(=O)N[C@@H](CO)C(=O)N1CCC[C@H]1C(=O)N[C@@H](CCC(=O)O)C(=O)N[C@@H](CCC(=O)O)C(=O)N[C@@H](CC(C)C)C(=O)N[C@@H](CC(N)=O)C(=O)N[C@@H](CCCN=C(N)N)C(=O)N[C@@H](Cc1ccc(O)cc1)C(=O)N[C@@H](Cc1ccc(O)cc1)C(=O)N[C@@H](C)C(=O)N[C@@H](CO)C(=O)N[C@@H](CC(C)C)C(=O)N[C@@H](CCCN=C(N)N)C(=O)N[C@@H](Cc1cnc[nH]1)C(=O)N[C@@H](Cc1ccc(O)cc1)C(=O)N[C@@H](CC(C)C)C(=O)N[C@@H](CC(N)=O)C(=O)N[C@@H](CC(C)C)C(=O)N[C@H](C(=O)N[C@H](C(=O)N[C@@H](CCCN=C(N)N)C(=O)N[C@@H](CCC(N)=O)C(=O)N[C@@H](CCCN=C(N)N)C(=O)N[C@@H](Cc1ccc(O)cc1)C(N)=O)[C@@H](C)O)C(C)C [PYY3-36]
scores for sleepiness or sickness ([1]; 90 minute infusion): not in the scores for sleepiness or sickness | fluid intake ([1]; buffet meal): no effect upon fluid intake | sensations of fullness or nausea ([1]; reported by volunteers): no difference in sensations of fullness or nausea | time for concentrations to return to basal post-infusion [2]: ≤ 30 min | plasma glucose, plasma leptin, GLP-1, or insulin [3]: no effect
